Here are results for one substance from patent US20060052301A1, “Splice variants of peptide YY, neuropeptide Y, pancreatic peptide Y and Amylin, and uses thereof” (priority 2004, published 2006).

This data set in a line: In-vitro stability study in acetate buffer (Alzet pump model, HPLC). Particulars: 20 mM acetate buffer pH 4.0, 37° C., 28 days. Type of data set: physicochemical. On the procedure: The stability of sterile PYY[3-36] and PYY variant peptide solutions was tested in Alzet pump model during 28 days of incubation at 37° C. (Alzet in-vitro protocol, DURECT Corporation, Calif., USA) following the analysis of the solutions by HPLC. In order to treat ob/ob mice with PYY variants by continuous infusion, the peptides must be soluble and the solution must be stable during the treatment period.
In the present study, much better stability was achieved when the peptides were dissolved in 20 mM acetate buffer at pH 4.0. Both the WT PYY[3-36] and the PYY variant of the present invention were analyzed in the in-vitro stability studies using two dosages as follows: the low dose of PYY[3-36] was 3.3 mg/ml; the low dose of PYY variant was 3.9 mg/ml; the high dose of PYY[3-36] was 10.6 mg/ml; the high dose of PYY variant was 12.8 mg/ml. In all the cases 2 or 3 different experiments were carried out.

“PYY[3-36]: known wild type Peptide YY form [3-36], SEQ ID NO:67, protease cleavage product of PYY [reference compound]”: the “Purity (%) (average ± stdev)” value reads like this: (high dose (PYY[3-36] 10.6 mg/ml; PYY variant [3-42] 12.8 mg/ml)) 85.8 ± 0.1%; (low dose (PYY[3-36] 3.3 mg/ml; PYY variant [3-42] 3.9 mg/ml)) 86.6 ± 0.02%.
